Experimental data published in ChEMBL document CHEMBL1129840, “The synthesis and SAR of new 4-(N-alkyl-N-phenyl)amino-6,7-dimethoxyquinazolines and 4-(N-alkyl-N-phenyl)aminopyrazolo[3,4-d]pyrimidines, inhibitors of CSF-1R tyrosine kinase activity” (Bioorg Med Chem Lett, 1997).

The chains behind the UniProt entries cited, without tags or fusion partners.
UniProt P00533, whole entry: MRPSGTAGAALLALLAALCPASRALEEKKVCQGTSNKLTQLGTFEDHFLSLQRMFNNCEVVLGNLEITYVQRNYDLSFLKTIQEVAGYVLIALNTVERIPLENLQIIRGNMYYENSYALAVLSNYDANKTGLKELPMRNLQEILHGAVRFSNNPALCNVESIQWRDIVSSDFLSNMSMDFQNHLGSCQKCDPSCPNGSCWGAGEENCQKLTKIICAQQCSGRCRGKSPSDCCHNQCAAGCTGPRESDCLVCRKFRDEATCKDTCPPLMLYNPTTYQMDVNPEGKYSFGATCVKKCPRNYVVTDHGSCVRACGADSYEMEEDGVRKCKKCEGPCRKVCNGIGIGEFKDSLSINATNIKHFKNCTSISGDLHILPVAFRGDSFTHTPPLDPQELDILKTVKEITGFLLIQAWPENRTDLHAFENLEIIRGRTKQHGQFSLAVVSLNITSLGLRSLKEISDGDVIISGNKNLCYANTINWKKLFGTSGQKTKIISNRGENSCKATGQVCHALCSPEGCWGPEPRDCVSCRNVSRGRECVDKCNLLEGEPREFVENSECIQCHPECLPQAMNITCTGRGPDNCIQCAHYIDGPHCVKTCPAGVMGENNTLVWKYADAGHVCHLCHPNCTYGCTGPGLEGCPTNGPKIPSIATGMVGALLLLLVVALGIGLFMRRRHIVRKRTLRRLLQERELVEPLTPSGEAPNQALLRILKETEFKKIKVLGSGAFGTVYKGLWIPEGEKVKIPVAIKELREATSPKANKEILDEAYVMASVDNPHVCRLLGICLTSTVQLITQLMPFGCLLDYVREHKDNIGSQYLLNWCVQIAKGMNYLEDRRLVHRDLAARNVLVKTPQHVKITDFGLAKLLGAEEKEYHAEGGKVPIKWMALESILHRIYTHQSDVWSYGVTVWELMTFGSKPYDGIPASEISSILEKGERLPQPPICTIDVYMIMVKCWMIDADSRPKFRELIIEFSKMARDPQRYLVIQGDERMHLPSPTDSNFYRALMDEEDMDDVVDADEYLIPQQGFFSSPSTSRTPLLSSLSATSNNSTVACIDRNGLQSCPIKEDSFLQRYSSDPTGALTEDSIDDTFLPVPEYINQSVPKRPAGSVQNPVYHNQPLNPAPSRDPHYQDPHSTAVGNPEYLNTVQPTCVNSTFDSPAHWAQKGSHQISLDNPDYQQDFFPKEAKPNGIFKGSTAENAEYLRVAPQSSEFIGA

Target: Epidermal growth factor receptor (Homo sapiens, UniProt P00533)
Assay: Antagonism towards Epidermal growth factor receptor

IC50: 500 nM
SMILES: COc1cc2ncnc(Nc3cc(OC)c(OC)c(OC)c3)c2cc1OC
